Holding throughout (assay type): cell-based
The target in assay [1] is T1, OR11H4 (Homo sapiens, UniProt Q8NGC9).
T1 construct: expressed in transfected cells; host or cells: HEK293T-RTP1S/RTP2
T1 sequence (Q8NGC9 1-324): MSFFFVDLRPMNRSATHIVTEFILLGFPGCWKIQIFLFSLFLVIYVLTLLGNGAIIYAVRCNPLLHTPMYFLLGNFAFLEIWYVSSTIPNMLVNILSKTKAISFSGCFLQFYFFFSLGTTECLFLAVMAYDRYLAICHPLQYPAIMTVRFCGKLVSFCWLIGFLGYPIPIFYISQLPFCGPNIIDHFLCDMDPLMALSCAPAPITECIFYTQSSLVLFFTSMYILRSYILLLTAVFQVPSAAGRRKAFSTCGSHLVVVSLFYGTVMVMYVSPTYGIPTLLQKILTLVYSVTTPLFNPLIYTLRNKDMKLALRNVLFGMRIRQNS
As to the kind of experiment: CRE-Luciferase cAMP functional assay, HEK293T-RTP1S/RTP2 cells transfected with OR11H4. How it is done:
(§1) Measurement of intracellular levels of cAMP on HEK293T-RTP1S/RTP2 cells transfected with either a plasmid encoding the indicated odorant receptor (OR10A6, OR2AG2, or OR11H4), or an empty vector, was used to detect olfactory receptor activity (see Supplementary Materials Figure S2). A total of 18 compounds were screened. Dose-response curves were constructed for selected hits and the EC50 values were determined. These compounds were randomly selected based on their naturality, their capacity to bind ORs based on data from the literature, and on the likelihood of finding these molecules with a high percentage in flowers extracts.
(§2) Measurements of OR activation are based on the CRE-Luciferase gene reporter assay. […] Luminescence emission was measured using either a Spectra Max M5 reader (Molecular Devices, Sunnyvale, CA, USA) or a FLUOstar Optima reader (BMG LABTECH GmbH, Offenburg, Germany). […] The concentration response curves were analyzed with Excel or GraphPad Prism 8.3.0 softwares (San Diego, CA, USA). […]
(§3) encoding individual ORs and the cAMP reporter gene CRE-Luc vector (pGL4.29 [luc2P/CRE/Hygro]) (Promega) using TransIT-LT1 Transfection reagent (Mirus Bio, #MIR2300). […] After four hours of incubation under carefully controlled conditions, cells were lysed by addition of 50 μL of Lysis buffer and processed for luminescence measurement. […]

The target in assay [2] is T2, OR10A6 (Homo sapiens, UniProt Q8NH74).
T2 construct: expressed in transfected cells; host or cells: HEK293T-RTP1S/RTP2
T2 sequence (Q8NH74 1-314): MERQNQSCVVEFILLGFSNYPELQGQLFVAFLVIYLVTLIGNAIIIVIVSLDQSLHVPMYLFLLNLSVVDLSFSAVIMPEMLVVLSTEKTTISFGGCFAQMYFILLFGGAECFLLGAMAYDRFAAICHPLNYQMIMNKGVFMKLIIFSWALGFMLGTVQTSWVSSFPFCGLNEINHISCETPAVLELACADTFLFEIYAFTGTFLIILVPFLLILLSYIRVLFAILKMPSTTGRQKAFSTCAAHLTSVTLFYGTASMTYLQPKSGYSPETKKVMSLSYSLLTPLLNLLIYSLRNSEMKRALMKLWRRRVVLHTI
As to the kind of experiment: CRE-Luciferase cAMP functional assay, HEK293T-RTP1S/RTP2 cells transfected with OR10A6. The protocol: as §1, §2, §3

The target in assay [3] is T3, OR2AG2 (Homo sapiens, UniProt A6NM03).
T3 construct: expressed in transfected cells; host or cells: HEK293T-RTP1S/RTP2
T3 sequence (A6NM03 1-316): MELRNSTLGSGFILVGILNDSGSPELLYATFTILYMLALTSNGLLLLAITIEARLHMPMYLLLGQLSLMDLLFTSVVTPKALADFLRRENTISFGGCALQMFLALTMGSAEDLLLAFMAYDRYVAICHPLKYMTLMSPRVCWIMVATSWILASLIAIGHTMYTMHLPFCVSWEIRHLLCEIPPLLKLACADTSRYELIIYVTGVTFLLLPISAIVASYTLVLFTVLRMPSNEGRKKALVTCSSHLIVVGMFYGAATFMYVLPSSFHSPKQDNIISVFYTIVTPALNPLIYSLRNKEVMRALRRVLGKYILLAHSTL
As to the kind of experiment: CRE-Luciferase cAMP functional assay, HEK293T-RTP1S/RTP2 cells transfected with OR2AG2. How it is done: as §1, §2, §3

For `CC(=O)/C=C/C1C(C)=CCCC1(C)C` (stereo not drawn) [α-Ionone], the concentration for a half-maximal effect (EC50) (usually the concentration that produces a half-maximal response) in assay [1] was more than 316 µM; in assay [2] it was 7.48 µM; in assay [3], more than 316 µM. Besides, in assay [2], the “activation of OR10A6 (in words)” value is given as “specifically activated OR10A6”.

(Values after article PMC7587601, “A Rose Extract Protects the Skin against Stress Mediators: A Potential Role of Olfactory Receptors” (Molecules, 2020).)
